Among the data in ChEMBL document CHEMBL1133088 (J Med Chem, 2000) are Lactone and IC50 values, retold here.

The nature of data set [1]: % lactone at different intervals of time in PBS with HSA suspension. In kind it is ADME. The following applies: human, buffer. In short, it runs like this: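 Lactone-ring hydrolysis of 1 uM drug at 37 °C and pH 7.4, incubated in PBS, in PBS containing physiologically relevant HSA or albumin-free red blood cells, or in whole human blood. Isocratic acetonitrile/2% triethylamine acetate (pH 5.5) at 1 mL/min; lactone eluted near 7.0 min, carboxylate near 2.0 min.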

Data set [2] is described as follows: Inhibition against MDA-MB-435 S human breast cancer cells in the absence of albumin. In kind it is functional, cell-based. In short, it runs like this:
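MDA-MB-435 S human breast cancer cells were grown without HSA for a 3-day growth assay with drug. Read-out was sulforhodamine B, which stains protein in cells and cell fragments still attached to the dish bottom, including dying or dead attached cells. IC50 was derived from the cell survival profiles.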

Data set [3] is described as follows: Inhibition against MDA-MB-435 S human breast cancer cells in the presence of 30 mg/mL HSA. Type of data set: functional, cell-based.

Consider `CCc1c2c(nc3ccc(O)cc13)-c1cc3c(c(=O)n1C2)COC(=O)[C@]3(O)CC` [7-ETHYL-10-HYDROXYCAMPTOTHECIN], for which, in data set [1], the Lactone is 6%. The IC50 in data set [2] came out at 5 nM; in data set [3], 50 nM.

Broadly, the IC50 is the midpoint of a concentration-inhibition curve.
